Experimental data from paper PMC12064818, “A general assay platform to study protein pharmacology using ligand-dependent structural dynamics” (Nature Communications, 2025).
pEC50, pIC50: −log10 of the molar value.

The chains behind the UniProt entries cited, without tags or fusion partners. Residues count along the entry.
UniProt P00519, 233-500 limits assumed: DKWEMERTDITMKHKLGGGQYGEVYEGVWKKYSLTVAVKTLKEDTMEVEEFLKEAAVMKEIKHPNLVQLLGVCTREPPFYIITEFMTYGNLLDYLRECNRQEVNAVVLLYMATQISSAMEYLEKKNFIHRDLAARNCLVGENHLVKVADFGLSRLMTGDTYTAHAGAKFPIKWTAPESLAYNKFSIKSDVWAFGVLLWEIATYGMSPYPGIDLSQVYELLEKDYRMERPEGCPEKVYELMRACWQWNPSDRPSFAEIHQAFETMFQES

How the values were obtained:
[1] = target: T1, ABL1-N-HiBiT kinase domain (Homo sapiens, UniProt P00519); assay: SDR assay, ABL1-N-HiBiT; settings: for SDR Ave Max Response / pEC50: ABL1-N-HiBiT qHTS; for SDR Ave Max Response: average maximal SDR response; for pEC50: read-out: SDR Ave SDR50, average, unit inferred
[2] = target: T1, ABL1-N-HiBiT kinase domain; settings: for ABL1 KGP pIC50: ABL1, Kinase-Glo Plus (KGP), heatmap data, 128 kinase inhibitors
[3] = system: PKA; settings: annotation yes/no for kinase library compound; source not given; cited from earlier work
[4] = target: PKA-N-HiBiT (Homo sapiens, UniProt P17612); assay: SDR assay, PKA-N-HiBiT; settings: without ATP

SDR Ave Max Response [1] [%] | PKA SDR Assay Mean (pSDR50) [4] | SMILES | pEC50 [1] | ABL1 KGP pIC50 [2] | Annotated PKA activity [3] | ABL1 SDR pSDR50 ([1]; ABL1, SDR, heatmap data, 128 kinase inhibitors) | pIC50 [2]
76.3 |  | CCCCNc1ncc2c(-c3ccc(S(=O)(=O)N4CCOCC4)cc3)nn(C3CCC(O)CC3)c2n1 (stereo not shown) | 5.68 | 5.41 | no |  | 
131 | 4.36 | CNS(=O)(=O)c1ccc2c(c1)/C(=C/c1[nH]c3c(c1CCCN1CCN(C)CC1)CCCC3)C(=O)N2 |  |  | no |  | 
36.2 |  | Oc1ccc(-c2ccc(-c3cc(Nc4cccc(CNC5CC5)c4)[nH]n3)cc2)c(O)c1 |  |  | no |  | 

Further lines, the molecule ahead of its results:

SMILES | SDR Ave Max Response [1] [%] | PKA SDR Assay Mean (pSDR50) [4] | pEC50 [1] | ABL1 KGP pIC50 [2] | Annotated PKA activity [3] | ABL1 SDR pSDR50 ([1]; ABL1, SDR, heatmap data, 128 kinase inhibitors) | pIC50 [2]
Cc1cc(Nc2ncc3cc(-c4c(Cl)cccc4Cl)c(=O)n(C)c3n2)ccc1F [PD 180970] | 72.3 |  | 8.19 | 7.47 |  | 8.19 | 7.44
Cc1cc(-c2cc(O)ccc2Cl)cc2nnc(Nc3ccc(OCCN4CCCC4)cc3)nc12 | 81.4 |  |  |  |  |  | 
Nc1ncnc2c1c(-c1ccc(Oc3ccccc3)cc1)cn2C1CCCC1 |  |  |  |  | no |  | 
